## scFv variants of Ab-14 (heavy chain) against a SARS-CoV-2 spike peptide

Binding partner: SARS-CoV-2 spike HR2 peptide, sequence PDVDLGDISGINAS.

Ab-14 is the parent antibody, in scFv form: VH, then a 15-residue (Gly4Ser)3 linker, then VL. The light chain is unchanged in all variants.
VH: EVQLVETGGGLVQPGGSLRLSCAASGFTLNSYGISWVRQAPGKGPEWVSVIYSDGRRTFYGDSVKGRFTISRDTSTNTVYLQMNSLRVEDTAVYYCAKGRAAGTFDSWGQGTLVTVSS
VL: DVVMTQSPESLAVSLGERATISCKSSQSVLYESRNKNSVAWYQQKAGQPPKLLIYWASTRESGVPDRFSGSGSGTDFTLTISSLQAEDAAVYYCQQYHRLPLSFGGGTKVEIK

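The starting antibody came from a phage panning campaign against this peptide. Library AAYL49 holds single substitutions and randomly drawn double and triple substitutions in the CDRs. The scFvs were displayed on barcoded MATa yeast, the peptide on MATalpha yeast. After mating in shaken culture at 30 °C for 16 h, diploids were selected and their barcode pairs sequenced. Each replicate has its own calibration line, from reference interactions of the BCL2 family. The assay was run in three technical replicates.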

Changes read parent residue, position, new residue, counted from the first residue of the VH shown. Scale: log10 of Kd in nM, estimated from mating counts; low values are strong binders. The mean shown is taken over the replicates in which the pair was detected. "nd" marks a missing value. The strain was present, yet no cells mated with the target were sequenced in that replicate, which points to weak or no binding. Three control strains display no target. For library AAYL49, 15% of the pairings with them gave a signal, with a median of 4.06 and one signal in twenty below 2.83, so weak values seen in few replicates may be background. For each scFv, signals with the empty controls are counted beside the result, with their mean in brackets.

| changes | replicates, log10 nM | log10 Kd (nM), mean | signal with controls |
|---|---|---|---|
| I34N+R56A+A101I | 4.04 nd nd | 4.04 | 1/9 (3.33) |
| L29T+G99R+F105P | nd nd nd | nd | 0/9 |
| D54H+S63H+G99L | nd nd nd | nd | 1/9 (3.43) |
| G55P+T58I+G61W | nd nd nd | nd | 0/9 |
| R57A+Y60L+D62K | 5.11 2.89 nd | 4.00 | 4/9 (4.25) |
| N30H+I51W+F105S | 4.78 4.09 6.71 | 5.19 | 7/9 (4.54) |
| I51P+T58A+T104A | nd nd nd | nd | 0/9 |
| Y32I+S35H+A102Q | nd nd nd | nd | 1/9 (3.87) |
| G26M+S63W+A102D | nd 3.79 4.27 | 4.03 | 2/9 (3.81) |
| Y32F+S107F | 1.85 2.30 2.71 | 2.29 | 0/9 |
| Y32G+S53W+S63P | nd nd 4.63 | 4.63 | 5/9 (4.09) |
| S35P+F59Q+T104E | nd nd nd | nd | 1/9 (4.42) |
| N30G+I34T+V64E | 4.64 nd nd | 4.64 | 5/9 (3.85) |
| S31M+Y52Q+R56V | nd nd nd | nd | 0/9 |
| D54S+R57A | 6.02 2.86 nd | 4.44 | 3/9 (4.17) |
| G26R+R56S+K65E | 1.73 1.93 2.01 | 1.89 | 4/9 (4.51) |
| Y32C+Y52H+G55F | nd 3.65 nd | 3.65 | 0/9 |
| L29H+S35F+G61S | nd 3.07 4.10 | 3.59 | 0/9 |
| G55M+F105A+S107P | nd nd nd | nd | 0/9 |
| F59H+G61S+A101K | nd nd 2.84 | 2.84 | 2/9 (3.01) |
| F59I+R100P | 3.10 nd 3.22 | 3.16 | 2/9 (4.39) |
| I34S+S35F+V50E | nd nd nd | nd | 2/9 (4.00) |
| G33W+K65I+G103S | nd 4.04 nd | 4.04 | 1/9 (3.15) |
| G55E+V64T+K65V | nd nd nd | nd | 1/9 (3.62) |
| T28W+L29P+G33A | nd 3.22 nd | 3.22 | 1/9 (3.87) |
| F27T+G55T+G99V | 2.46 3.17 2.51 | 2.71 | 0/9 |
| G26Q+G33T+R100E | nd 3.10 nd | 3.10 | 1/9 (3.56) |
| I34H+G55E+Y60W | nd nd nd | nd | 0/9 |
| S31L+D62G+G99P | 3.52 3.59 4.39 | 3.83 | 0/9 |
| Y52I+Y60G+S63V | nd nd nd | nd | 0/9 |
| S31W+D62N | 2.16 2.59 3.71 | 2.82 | 2/9 (4.32) |
| R57A+D62S | nd nd nd | nd | 0/9 |
| T28E+V50S+R100N | nd nd 4.61 | 4.61 | 7/9 (4.31) |
| S53V+G55F+G99V | nd nd nd | nd | 0/9 |
| T28H+G55Y+R100Y | nd nd nd | nd | 0/9 |
| S31V+T58R+G99R | nd 3.22 nd | 3.22 | 1/9 (3.55) |
| F27D+Y32M+G99M | 2.89 2.59 2.76 | 2.75 | 2/9 (4.62) |
| I51H+F105D+S107Q | nd nd nd | nd | 0/9 |
| G26E+S35W+D106K | nd nd nd | nd | 1/9 (4.29) |
| G26H+N30I+G61W | nd nd nd | nd | 0/9 |

Excerpt, the first 6 entries:

| changes | replicates, log10 nM | log10 Kd (nM), mean | signal with controls |
|---|---|---|---|
| I34N+R56A+A101I | 4.04 nd nd | 4.04 | 1/9 (3.33) |
| L29T+G99R+F105P | nd nd nd | nd | 0/9 |
| D54H+S63H+G99L | nd nd nd | nd | 1/9 (3.43) |
| G55P+T58I+G61W | nd nd nd | nd | 0/9 |
| R57A+Y60L+D62K | 5.11 2.89 nd | 4.00 | 4/9 (4.25) |
| N30H+I51W+F105S | 4.78 4.09 6.71 | 5.19 | 7/9 (4.54) |

Values reported by Engelhart et al. 2022, doi:10.1038/s41597-022-01779-4 (FLAb copy).